Earlier results in patent US8603436B2, “Methods and compositions for targeted drug delivery” (priority 2000, dated 2013).

Amino acid sequences for entries named in this document (tags omitted).
UniProt P02786, whole entry, stated change not applied: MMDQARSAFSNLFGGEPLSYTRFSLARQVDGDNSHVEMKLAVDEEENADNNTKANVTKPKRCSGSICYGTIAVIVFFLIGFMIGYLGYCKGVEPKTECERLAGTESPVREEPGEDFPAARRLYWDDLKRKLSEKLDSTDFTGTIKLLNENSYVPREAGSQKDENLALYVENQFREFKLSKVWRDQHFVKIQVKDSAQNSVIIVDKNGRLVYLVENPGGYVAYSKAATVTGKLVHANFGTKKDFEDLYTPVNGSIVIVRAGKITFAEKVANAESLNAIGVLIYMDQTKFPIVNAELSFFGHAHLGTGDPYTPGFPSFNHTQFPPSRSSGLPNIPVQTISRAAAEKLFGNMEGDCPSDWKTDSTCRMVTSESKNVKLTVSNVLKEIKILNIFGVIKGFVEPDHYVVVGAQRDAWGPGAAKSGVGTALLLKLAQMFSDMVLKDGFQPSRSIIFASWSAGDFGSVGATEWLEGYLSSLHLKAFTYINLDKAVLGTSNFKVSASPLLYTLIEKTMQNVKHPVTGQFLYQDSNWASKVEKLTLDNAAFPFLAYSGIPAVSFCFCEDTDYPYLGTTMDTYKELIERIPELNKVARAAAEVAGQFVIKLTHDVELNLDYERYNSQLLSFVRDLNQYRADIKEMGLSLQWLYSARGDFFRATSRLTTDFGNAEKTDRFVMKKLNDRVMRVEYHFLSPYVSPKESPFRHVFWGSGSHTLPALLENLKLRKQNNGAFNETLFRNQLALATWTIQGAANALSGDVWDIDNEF

Biological target: T1, engineered version of the transferrin receptor (Homo sapiens, UniProt P02786)
T1 construct: host or cells: tumor in vivo made to overexpress the engineered receptor gene
Conditions: in vivo, MRI

increase of paramagnetic particle uptake compared to tumors not expressing the engineered receptor gene: 2.5 fold
Substance: transferrin-linked paramagnetic particles: transferrin-linked paramagnetic particles detected by MRI
